{"sequences": {"note": "By UniProt entry, the sequences of proteins in these tests, tags left out.", "UniProt P42337, whole entry": "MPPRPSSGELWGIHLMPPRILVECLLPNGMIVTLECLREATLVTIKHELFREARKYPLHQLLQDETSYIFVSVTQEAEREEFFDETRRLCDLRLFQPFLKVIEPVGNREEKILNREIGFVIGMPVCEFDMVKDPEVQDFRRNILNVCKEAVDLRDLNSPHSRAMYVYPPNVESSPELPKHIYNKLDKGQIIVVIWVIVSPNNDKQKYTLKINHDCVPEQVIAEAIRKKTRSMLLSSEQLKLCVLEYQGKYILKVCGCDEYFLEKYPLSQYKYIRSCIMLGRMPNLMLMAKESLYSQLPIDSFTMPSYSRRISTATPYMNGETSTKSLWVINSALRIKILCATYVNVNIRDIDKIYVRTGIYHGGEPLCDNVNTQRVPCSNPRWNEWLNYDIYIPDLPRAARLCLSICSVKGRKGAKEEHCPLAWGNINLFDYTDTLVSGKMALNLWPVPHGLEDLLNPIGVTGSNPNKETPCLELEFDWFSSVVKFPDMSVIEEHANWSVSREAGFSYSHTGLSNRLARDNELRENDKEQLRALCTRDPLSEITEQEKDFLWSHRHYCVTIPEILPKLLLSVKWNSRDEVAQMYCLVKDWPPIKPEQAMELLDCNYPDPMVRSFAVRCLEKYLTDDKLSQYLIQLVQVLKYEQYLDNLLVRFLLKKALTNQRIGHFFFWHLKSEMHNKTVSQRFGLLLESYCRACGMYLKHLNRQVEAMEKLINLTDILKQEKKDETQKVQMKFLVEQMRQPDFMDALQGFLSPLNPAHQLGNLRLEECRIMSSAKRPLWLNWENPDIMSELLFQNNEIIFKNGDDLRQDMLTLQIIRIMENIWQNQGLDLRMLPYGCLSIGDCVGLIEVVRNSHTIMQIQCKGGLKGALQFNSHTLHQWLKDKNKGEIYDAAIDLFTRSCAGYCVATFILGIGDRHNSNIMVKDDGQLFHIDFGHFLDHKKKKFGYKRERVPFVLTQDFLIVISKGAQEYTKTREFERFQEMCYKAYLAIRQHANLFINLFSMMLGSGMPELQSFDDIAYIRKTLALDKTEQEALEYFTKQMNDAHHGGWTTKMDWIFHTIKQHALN"}, "source": "ChEMBL document CHEMBL2057195", "about": "“Design and synthesis of a novel pyrrolidinyl pyrido pyrimidinone derivative as a potent inhibitor of PI3Kα and mTOR” (Bioorg Med Chem Lett, 2012)", "molecular_target": "Phosphatidylinositol 4,5-bisphosphate 3-kinase catalytic subunit alpha isoform (Mus musculus, UniProt P42337)"}
{"smiles": "COc1ccc(-c2cc3c(C)nc(N)nc3n(C3CCC3)c2=O)cn1", "values": [{"measurement": "Ki", "result": 3.7, "unit": "nM"}]}
